Only a part is listed here, and it is no random draw. Some of these compounds have results that are not shown, active ones among them. Calls of active or inactive are those of the source. Rule as the data show it: active = inhibition above about 50%; inactive = the rest.

The test deals with Dual specificity tyrosine-phosphorylation-regulated kinase 1A (Rattus norvegicus) (UniProt Q63470). Put plainly: rat Dyrk1A kinase inhibitors, primary screen, biochemical, single point, plate reader (AID 504441).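 Also: plate controls were vehicle with enzyme for no effect and no enzyme for full effect.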 Conditions: ADP-Glo luminescence, NFATc1 peptide, at 12.5 µM, stronger effect = higher value.
Turning to `COc1ccc(Cl)cc1C(=O)NCC1(N(C)C)CCCCC1`, the inhibition is inactive: -5.09%.
With `O=C(NCC1(N2CCCCC2)CCCCC1)c1cccc(Cl)c1` the figure was inactive: 17.1%; with `CN(C)C1(CNC(=O)c2ccc(Br)cc2)CCCCC1`, inactive: 5.71%; with `COc1cc(C(=O)NCC2(N(C)C)CCCCC2)c([N+](=O)[O-])cc1OC`, inactive: -3.41%.
Regarding `COc1ccc(Br)c(C(=O)NCC2(N3CCCCC3)CCCCC2)c1`, the inhibition was inactive: -4.28%.
The figure for `CN(C)c1cccc(C(=O)NCC2(N(C)C)CCCCC2)c1` is inactive: 0.281%; for `CC(C)Oc1ccc(C(=O)NCC2(N(C)C)CCCCC2)cc1` it is inactive: -2.79%; for `O=C(OC1CN2CCC1CC2)C(CO)(c1ccccc1)c1ccccc1` (stereo not drawn) it is inactive: -5.83%.
The figure for `CC(C)N1C(=O)CC2(CCN(CCOC(=O)C(O)(c3ccccc3)c3ccccc3)CC2)C1=O` is inactive: -3.86%.
The figure for `CCN(CC)CC(C)C(C)OC(=O)C(O)(c1ccccc1)c1ccccc1` (stereo not drawn) is inactive: -5.56%; for `COc1cc(SC)ccc1C(=O)NCC1(N(C)C)CCCCC1` it is inactive: 3.09%.
Regarding `Cc1ccc(C(=O)NCC2(N3CCCCC3)CCCCC2)cc1`, the inhibition is inactive: -3.61%.
With `O=C(NCC1(N2CCCCC2)CCCCC1)c1cc([N+](=O)[O-])ccc1Cl` the figure was inactive: 8.19%; with `CN1[C@@H]2CC[C@H]1CC(OC(=O)C(O)(c1ccccc1)c1ccccc1)C2` (stereo partly drawn), inactive: -3.32%.
Take `C=CCN1CCN(CCOC(=O)C(O)(c2ccccc2)c2ccccc2)CC1`: the inhibition is inactive: -1.7%.
With `O=C(NCC1(N2CCCCC2)CCCCC1)c1cc(F)c(F)cc1Cl` the figure was inactive: -1.42%; with `Cc1cc(C(=O)NCC2(N3CCCCC3)CCCCC2)ccc1[N+](=O)[O-]`, inactive: -0.729%; with `CCN1CCCC(OC(=O)C2(O)c3ccccc3C=Cc3ccccc32)C1` (stereo not drawn), inactive: 6%.
With `O=C(NCC1(N2CCCCC2)CCCCC1)c1cccc(Br)c1` the figure was inactive: 0.0377%.
The figure for `COc1ccc(C(=O)NCC2(N(C)C)CCCCC2)cc1` is inactive: -3.66%; for `Cc1ccccc1C(=O)NCC1(N2CCCCC2)CCCCC1` it is inactive: 2.21%.
On to `CN(C)C1CCCC1OC(=O)C(O)(c1ccccc1)c1ccccc1` (stereo not drawn), for which the inhibition is inactive: -3.72%.
The figure for `CN(C)c1ccc(C(=O)NCC2(N(C)C)CCCCC2)cc1` is inactive: -0.0107%.

For the origin of these results see PubChem BioAssay AID504441 (Broad Institute, 2011).
